Ab-95 light chain CDR variants: yeast mating affinities

From the AlphaSeq antibody data of Engelhart et al. 2022 (doi:10.1038/s41597-022-01779-4), copy in the FLAb collection.

Binding partner: SARS-CoV-2 spike HR2 peptide, sequence PDVDLGDISGINAS.

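The starting antibody came from a phage panning campaign against this peptide. Variants in AAYL52 differ from the parent at up to three CDR positions; double and triple changes were sampled at random. Affinity was read by AlphaSeq, a pooled yeast mating assay with surface-displayed partners. Mating (16 h, 30 °C) was followed by selection of diploids and sequencing of their barcodes. Scores were corrected for input abundance and mapped to Kd with protein pairs of known affinity run in the same pool. The assay was run in three technical replicates.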

Parent: Ab-95, a human scFv built as VH, three GGGGS repeats, VL. Only the CDRs of the light chain vary.
VH: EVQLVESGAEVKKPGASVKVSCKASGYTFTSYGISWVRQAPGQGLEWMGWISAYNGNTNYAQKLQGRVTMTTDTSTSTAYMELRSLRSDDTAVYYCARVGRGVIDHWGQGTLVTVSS
VL: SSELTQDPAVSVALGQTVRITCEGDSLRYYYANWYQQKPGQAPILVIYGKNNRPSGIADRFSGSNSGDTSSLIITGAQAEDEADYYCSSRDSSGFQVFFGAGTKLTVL

Substitutions are numbered in sequence along the VL above, starting at 1 (not Kabat). Every variant below is changed at Y29 of the VL (sequential numbering). Values are apparent Kd, the geometric mean of the replicates that gave a signal; lower means stronger binding. An entry "no signal" has no value in the source: the pair was not observed among the diploids in any replicate. This suggests poor binding but is not conclusive.

For S26V+Y29K+P54Q, the assay gave 1.6 µM (3 of 3 replicates; controls 3 of 9).
For Y29K, the assay gave 230 nM (3 of 3 replicates; controls 4 of 9).
For D25Q+Y29V+Y31L, the assay gave 6.3 µM (2 of 3 replicates; controls 5 of 9).
For Y29D+S88V+F98M, the assay gave 2.1 µM (1 of 3 replicates; controls 3 of 9).
For E23H+Y29P+N52M, the assay gave 86 nM (3 of 3 replicates; controls 7 of 9).
For E23N+L27P+Y29E, the assay gave 15 µM (2 of 3 replicates; controls 2 of 9).
For Y29H+S88V+R90E, the assay gave 170 nM (3 of 3 replicates; controls 2 of 9).
For Y29W+N33R+F98Q, the assay gave no signal (0 of 3 replicates; controls 2 of 9).
For G24H+R28C+Y29V, the assay gave 22 µM (1 of 3 replicates; controls 1 of 9).
For Y29W+S92V+G94F, the assay gave 1.8 µM (2 of 3 replicates; controls 1 of 9).
For Y29A+N52L+R90K, the assay gave 170 nM (3 of 3 replicates; controls 4 of 9).
For E23I+Y29W+A32M, the assay gave no signal (0 of 3 replicates; controls 0 of 9).
For Y29R+A32R+S89D, the assay gave no signal (0 of 3 replicates; controls 0 of 9).
For Y29W+S89W+R90E, the assay gave 9.3 µM (1 of 3 replicates; controls 2 of 9).
For Y29C+Y30M+S88T, the assay gave 66 nM (3 of 3 replicates; controls 4 of 9).
For Y29R+R53I+F98H, the assay gave 1.8 µM (3 of 3 replicates; controls 2 of 9).
For L27Y+Y29W+D91F, the assay gave 3.5 µM (1 of 3 replicates; controls 1 of 9).
For S26W+Y29K+P54S, the assay gave 270 µM (1 of 3 replicates; controls 2 of 9).
For L27M+Y29I+S92L, the assay gave no signal (0 of 3 replicates; controls 2 of 9).
For Y29C+R53W+F95E, the assay gave no signal (0 of 3 replicates; controls 2 of 9).
For D25P+Y29P+P54G, the assay gave 840 nM (3 of 3 replicates; controls 2 of 9).
For Y29R+Y30K+G94L, the assay gave 2.9 µM (2 of 3 replicates; controls 5 of 9).
For Y29C+N33L, the assay gave 1.6 µM (3 of 3 replicates; controls 3 of 9).
For Y29D+Y30T+A32F, the assay gave 72 nM (3 of 3 replicates; controls 2 of 9).
For Y29V+N33A+Q96G, the assay gave 11 µM (1 of 3 replicates; controls 4 of 9).
For Y29P+N33P+G49F, the assay gave no signal (0 of 3 replicates; controls 3 of 9).
For Y29V+N52L+Q96P, the assay gave 530 nM (3 of 3 replicates; controls 3 of 9).
For Y29G+P54E+S55N, the assay gave 50 nM (3 of 3 replicates; controls 1 of 9).
For D25R+L27S+Y29D, the assay gave 2.3 µM (3 of 3 replicates; controls 2 of 9).
For Y29R+Y30M+S89M, the assay gave 550 nM (3 of 3 replicates; controls 4 of 9).
For Y29G+D91M, the assay gave 13 µM (3 of 3 replicates; controls 3 of 9).
For Y29W+D91I+S92A, the assay gave no signal (0 of 3 replicates; controls 1 of 9).
For Y29G+S92M, the assay gave 14 nM (3 of 3 replicates; controls 2 of 9).
For E23G+Y29G+F95R, the assay gave 16 nM (3 of 3 replicates; controls 7 of 9).
For L27W+Y29V+V97Q, the assay gave 420 µM (1 of 3 replicates; controls 2 of 9).
For Y29M+P54V+G94E, the assay gave 2.4 µM (1 of 3 replicates; controls 2 of 9).
For S26E+Y29N+A32T, the assay gave 950 nM (3 of 3 replicates; controls 3 of 9).
For Y29M+S93W+Q96P, the assay gave 620 nM (3 of 3 replicates; controls 2 of 9).
For S26H+Y29G+R53F, the assay gave 32 µM (3 of 3 replicates; controls 4 of 9).
For R28Q+Y29E+P54C, the assay gave 4.0 µM (2 of 3 replicates; controls 2 of 9).
For Y29M+P54Q+S55N, the assay gave 1.8 µM (3 of 3 replicates; controls 1 of 9).
For Y29H+R53E+S55A, the assay gave 2.7 µM (3 of 3 replicates; controls 5 of 9).
For Y29F+S55E, the assay gave 92 nM (3 of 3 replicates; controls 2 of 9).
For G24D+Y29T+N33L, the assay gave 3.7 µM (1 of 3 replicates; controls 1 of 9).
For D25R+Y29K+S89N, the assay gave 3.5 µM (2 of 3 replicates; controls 5 of 9).

The 7 strongest on average among those seen in every replicate, once more:

| changes | Kd | replicates with signal | signal with controls |
|---|---|---|---|
| Y29G+S92M | 14 nM | 3/3 | 2/9 |
| E23G+Y29G+F95R | 16 nM | 3/3 | 7/9 |
| Y29G+P54E+S55N | 50 nM | 3/3 | 1/9 |
| Y29C+Y30M+S88T | 66 nM | 3/3 | 4/9 |
| Y29D+Y30T+A32F | 72 nM | 3/3 | 2/9 |
| E23H+Y29P+N52M | 86 nM | 3/3 | 7/9 |
| Y29F+S55E | 92 nM | 3/3 | 2/9 |

Empty control strains, which show no peptide, gave a signal in 28% of pairings with library AAYL52; the median was 8.2 µM and 95% of these signals were weaker than 800 nM. No background was subtracted. The control count says in how many pairings with the empty strains this scFv gave a signal.